{
  "source": "paper PMC11921695",
  "about": "(BMC Cancer, 2025)",
  "assay_type": "in vivo",
  "conditions": "selumetinib starting dose 75 mg bd; for Antiretroviral drug Concentration: trough plasma, individual patients",
  "note": "Where two headings read alike, the source gives them in different places.",
  "data": [
    {"substance": "Maraviroc", "values": [
      {"measurement": "% Change in antiretroviral drug concentration", "setting": "Cycle 1 Day 15 vs Cycle 1 Day 1", "result": 297.8, "unit": "%"},
      {"measurement": "% Change in antiretroviral drug concentration", "setting": "Cycle 5 Day 1 vs Cycle 1 Day 1", "result": 241.3, "unit": "%"},
      {"measurement": "Antiretroviral drug Concentration", "setting": "Cycle 1 Day 1 (pre-selumetinib)", "result": 46, "unit": "ng/mL"},
      {"measurement": "Antiretroviral drug Concentration", "setting": "Cycle 1 Day 15", "result": 183, "unit": "ng/mL"},
      {"measurement": "Antiretroviral drug Concentration", "setting": "Cycle 5 Day 1", "result": 157, "unit": "ng/mL"}
    ]}
  ]
}
